{"source": "patent US20230287118A1", "about": "(published 2023)", "target": "T1, human CD20 (human, UniProt P11836 1-297)", "T1 sequence (looked up)": "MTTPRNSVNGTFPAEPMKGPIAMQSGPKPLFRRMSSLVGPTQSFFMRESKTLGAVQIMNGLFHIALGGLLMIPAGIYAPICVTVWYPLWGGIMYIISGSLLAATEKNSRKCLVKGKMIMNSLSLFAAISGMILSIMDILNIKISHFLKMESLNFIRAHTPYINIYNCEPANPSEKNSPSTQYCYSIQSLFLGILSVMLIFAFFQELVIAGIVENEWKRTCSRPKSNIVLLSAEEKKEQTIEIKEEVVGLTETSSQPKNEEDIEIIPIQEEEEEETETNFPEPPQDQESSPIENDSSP", "test": "cell-based or functional assay"}
{"binder": "Obinutuzumab (Gazyva) (antibody, V domains shown) VH: QVQLVQSGAEVKKPGSSVKVSCKASGYAFSYSWINWVRQAPGQGLEWMGRIFPGDGDTDYNGKFKGRVTITADKSTSTAYMELSSLRSEDTAVYYCARNVFDGYWLVYWGQGTLVTVSS VL: DIVMTQTPLSLPVTPGEPASISCRSSKSLLHSNGITYLYWYLQKPGQSPQLLIYQMSNLVSGVPDRFSGSGSGTDFTLKISRVEAEDVGVYYCAQNLELPYTFGGGTKVEIK", "values": [{"measurement": "EC50 24 h of B cell depletion in normal human whole blood", "value": 79.2, "unit": "pM"}]}
